Measurements from ChEMBL document CHEMBL4673226, “Development of 5-Aminopyrazole-4-carboxamide-based Bumped-Kinase Inhibitors for Cryptosporidiosis Therapy” (J Med Chem, 2019).

Sequences of proteins named here, by UniProt entry; tags and fusion partners are left off. A change or cut given only in a name is not applied to a line headed by its entry.
UniProt Q12809: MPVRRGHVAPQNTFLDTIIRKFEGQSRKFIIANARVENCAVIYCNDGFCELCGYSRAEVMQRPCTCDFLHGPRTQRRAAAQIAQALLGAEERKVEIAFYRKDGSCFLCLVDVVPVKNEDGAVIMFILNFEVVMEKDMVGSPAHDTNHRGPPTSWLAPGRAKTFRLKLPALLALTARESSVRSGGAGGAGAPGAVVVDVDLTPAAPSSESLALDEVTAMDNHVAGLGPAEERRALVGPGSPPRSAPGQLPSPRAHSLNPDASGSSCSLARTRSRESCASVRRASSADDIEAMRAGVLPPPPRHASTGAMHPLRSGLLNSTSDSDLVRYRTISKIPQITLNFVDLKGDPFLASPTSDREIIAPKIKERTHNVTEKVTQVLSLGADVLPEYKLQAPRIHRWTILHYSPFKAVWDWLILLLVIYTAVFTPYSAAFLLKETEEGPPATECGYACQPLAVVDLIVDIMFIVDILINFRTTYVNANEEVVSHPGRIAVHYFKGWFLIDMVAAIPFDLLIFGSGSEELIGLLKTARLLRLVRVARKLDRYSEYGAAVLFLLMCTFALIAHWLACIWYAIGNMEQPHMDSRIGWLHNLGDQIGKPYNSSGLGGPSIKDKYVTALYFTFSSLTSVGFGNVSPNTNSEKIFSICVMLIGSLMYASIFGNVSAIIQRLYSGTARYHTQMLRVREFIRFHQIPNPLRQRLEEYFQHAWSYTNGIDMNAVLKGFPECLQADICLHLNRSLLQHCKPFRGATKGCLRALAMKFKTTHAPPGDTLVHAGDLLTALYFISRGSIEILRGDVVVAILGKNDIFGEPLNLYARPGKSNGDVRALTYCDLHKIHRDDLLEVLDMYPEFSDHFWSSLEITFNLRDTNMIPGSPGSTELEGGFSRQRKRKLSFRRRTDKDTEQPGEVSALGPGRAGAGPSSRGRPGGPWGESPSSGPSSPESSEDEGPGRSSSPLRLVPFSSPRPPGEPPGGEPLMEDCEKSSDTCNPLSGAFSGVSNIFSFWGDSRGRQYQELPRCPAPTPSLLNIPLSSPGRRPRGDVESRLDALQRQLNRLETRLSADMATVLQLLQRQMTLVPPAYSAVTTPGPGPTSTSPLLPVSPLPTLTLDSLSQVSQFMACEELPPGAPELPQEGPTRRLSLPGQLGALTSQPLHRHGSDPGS
UniProt P12931: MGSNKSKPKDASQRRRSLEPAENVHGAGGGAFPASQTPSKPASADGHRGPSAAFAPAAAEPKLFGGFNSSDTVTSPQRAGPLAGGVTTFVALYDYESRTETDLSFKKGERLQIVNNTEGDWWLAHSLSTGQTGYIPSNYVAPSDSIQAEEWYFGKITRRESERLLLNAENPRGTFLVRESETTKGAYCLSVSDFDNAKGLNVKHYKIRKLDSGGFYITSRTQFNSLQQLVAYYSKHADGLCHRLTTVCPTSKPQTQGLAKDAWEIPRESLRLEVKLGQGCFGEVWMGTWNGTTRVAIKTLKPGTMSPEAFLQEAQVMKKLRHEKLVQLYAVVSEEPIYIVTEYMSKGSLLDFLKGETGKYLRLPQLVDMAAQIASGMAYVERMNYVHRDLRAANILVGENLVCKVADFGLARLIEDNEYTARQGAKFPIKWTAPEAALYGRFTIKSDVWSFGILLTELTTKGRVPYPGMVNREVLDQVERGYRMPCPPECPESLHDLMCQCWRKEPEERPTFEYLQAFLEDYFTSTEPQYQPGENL

How the values were obtained:
[1] = molecular target: T1, Voltage-gated inwardly rectifying potassium channel KCNH2 (Homo sapiens, UniProt Q12809)
in vivo [2] = details: mouse, po, 10 mg/kg
in vivo [3] = details: mouse, po, 10 mg/kg; remark: listed apart in the source
in vivo [4] = details: mouse, po, 10 mg/kg; remark: listed apart in the source
[5] = buffer, pH 6.5
[6] = buffer, pH 2
in vivo [7] = details: mouse, po, 25 mg/kg
in vivo [8] = details: mouse, po, 25 mg/kg; remark: listed apart in the source
in vivo [9] = details: mouse, po, 25 mg/kg; remark: listed apart in the source
[10] = molecular target: Proto-oncogene tyrosine-protein kinase Src (Homo sapiens, UniProt P12931); type: ADME
[11] = human, plasma
[12] = mouse, plasma
[13] = molecular target: T1, Voltage-gated inwardly rectifying potassium channel KCNH2; remark: listed apart in the source

In the case of CCOc1ccc2cc(-c3nn(C(C)CCO)c(N)c3C(N)=O)cnc2c1 (stereo not drawn), the IC50 [1] is reported as > 30 µM, the half-life (in vivo [2]) is reported as 2 h and the Tmax (in vivo [3]) is reported as 0.5 h. The Cmax (in vivo [4]) was 2.7 µM.

In the case of CCOc1ccc2cc(-c3nn(CC(C)(C)CO)c(N)c3C(N)=O)cnc2c1, the IC50 [1] is reported as > 30 µM.

For CCOc1ccc2cc(-c3nn(CC(C)(C)CO)c(N)c3C(N)=O)ccc2n1, the half-life (in vivo [2]) was 0.105 h, the Tmax (in vivo [3]) was 0.833 h and the solubility [5] was > 100 µM. For the same molecule, the solubility [6] was > 50 µM.

Work on CCOc1ccc2cc(-c3nn(CC4CC4)c(N)c3C(N)=O)ccc2c1 yielded an IC50 [1] of 15.7 µM, a half-life (in vivo [7]) of 12.6 h and a solubility [5] of 7.4 µM (≈ 2.59 µg/mL). For the same molecule, the solubility [6] was 50.6 µM (≈ 17.7 µg/mL) and the Cmax (in vivo [8]) was 4.2 µM.

In the case of CCOc1ccc2cc(-c3nn(C(C)(C)CCO)c(N)c3C(N)=O)ccc2c1, the half-life (in vivo [7]) is reported as 0.352 h and the Tmax (in vivo [9]) is reported as 0.5 h.

With CCOc1ccc2cc(-c3nn(C(C)(C)CCO)c(N)c3C(N)=O)ccc2n1 the IC50 [1] was > 30 µM, the half-life (in vivo [7]) was 6.71 h and the solubility [5] was > 50 µM. The solubility [6] was > 50 µM, the Cmax (in vivo [8]) was 2.8 µM and the IC50 [10] was > 10 µM.

For CCOc1ccc2cc(-c3nn(C(C)(C)CCO)c(N)c3C(N)=O)cnc2c1, the IC50 [1] was > 30 µM.

With CCOc1ccc2cc(-c3nn(C(C)(C)CO)c(N)c3C(N)=O)ccc2c1 the PPB [11] was 97%, the PPB [12] was 91% and the IC50 [1] was > 30 µM. The half-life (in vivo [7]) was 3.52 h, the Tmax (in vivo [9]) was 1.5 h and the Cmax (in vivo [8]) was 24 µM.

With CC(C)(CO)n1nc(-c2ccc3cc(OC4CC4)ccc3c2)c(C(N)=O)c1N the IC50 [1] was 30 µM, the IC50 [13] was > 30 µM and the half-life (in vivo [7]) was 2.67 h. The Tmax (in vivo [9]) was 3 h and the Cmax (in vivo [8]) was 79.2 µM.

With CC(CCO)n1nc(-c2ccc3cc(OC4CC4)ccc3c2)c(C(N)=O)c1N (stereo not drawn) the IC50 [1] was > 30 µM, the half-life (in vivo [7]) was 2.24 h and the Tmax (in vivo [9]) was 0.5 h. For the same molecule, the Cmax (in vivo [8]) was 15.4 µM.

In the case of CC(C)(CO)n1nc(-c2ccc3nc(OC4CC4)ccc3c2)c(C(N)=O)c1N, the PPB [11] is reported as 95%, the PPB [12] is reported as 85% and the IC50 [1] is reported as > 30 µM. For the same molecule, the half-life (in vivo [7]) was 0.833 h, the Tmax (in vivo [9]) was 1.33 h and the solubility [5] was > 100 µM. For the same molecule, the solubility [6] was > 100 µM, the Cmax (in vivo [8]) was 13.8 µM and the IC50 [10] was > 10 µM.

In the case of CCOc1ccc2cc(-c3nn(CC(C)(C)CO)c(N)c3C(N)=O)ccc2c1, the IC50 [1] is reported as 30 µM, the IC50 [13] is reported as > 8.6 µM and the half-life (in vivo [7]) is reported as 3.45 h. The Tmax (in vivo [9]) was 0.833 h and the Cmax (in vivo [8]) was 3.1 µM.

For CC(C)(CCO)n1nc(-c2cnc3cc(OC4CC4)ccc3c2)c(C(N)=O)c1N, the IC50 [1] was > 30 µM.

For CCOc1ccc2cc(-c3nn(C(C)(C)CO)c(N)c3C(N)=O)cnc2c1, the IC50 [1] was > 30 µM, the half-life (in vivo [7]) was 2.29 h and the Tmax (in vivo [9]) was 1.33 h. The Cmax (in vivo [8]) was 133 µM.

With CCOc1ccc2cc(-c3nn(C(C)CCO)c(N)c3C(N)=O)ccc2n1 (stereo not drawn) the IC50 [1] was > 30 µM and the IC50 [10] was 5.4 µM.

For CC(C)(CO)n1nc(-c2cnc3cc(OC4CC4)ccc3c2)c(C(N)=O)c1N, the IC50 [1] was > 30 µM.

With CCOc1ccc2cc(-c3nn(C(C)(C)CO)c(N)c3C(N)=O)ccc2n1 the IC50 [1] was > 30 µM, the IC50 [13] was > 21.5 µM and the half-life (in vivo [7]) was 2.73 h. It also gave a Tmax (in vivo [9]) of 1.17 h and a Cmax (in vivo [8]) of 38.6 µM.

For CCOc1ccc2cc(-c3nn(C(C)CCO)c(N)c3C(N)=O)ccc2c1 (stereo not drawn), the IC50 [1] was > 30 µM, the half-life (in vivo [7]) was 5.92 h and the Tmax (in vivo [9]) was 0.667 h. The Cmax (in vivo [8]) was 10 µM.

In the case of CC(C)(C)n1nc(-c2ccc3cc(OC4CC4)ccc3c2)c(C(N)=O)c1N, the IC50 [1] is reported as 27 µM, the IC50 [13] is reported as > 17 µM and the half-life (in vivo [2]) is reported as 8.03 h. It also gave a Tmax (in vivo [3]) of 3 h and a Cmax (in vivo [4]) of 12.9 µM.

With C#CCOc1ccc2cc(-c3nn(C(C)(C)C)c(N)c3C(N)=O)ccc2c1 the PPB [11] was 99%, the PPB [12] was 88% and the IC50 [13] was > 22.6 µM. The half-life (in vivo [7]) was 4.83 h, the Tmax (in vivo [9]) was 2.67 h and the solubility [5] was < 10 µM. The solubility [6] was 17.6 µM (≈ 6.38 µg/mL), the Cmax (in vivo [8]) was 16.9 µM and the IC50 [10] was > 10 µM.

In brackets after ≈: the same amount, converted by molar mass.
